Only a part is listed here, and it is no random draw. Some tests of the compounds listed are not included; inactive here does not mean inactive elsewhere. Active and inactive are the calls of the source.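 How the source made its calls: active means mean replicate inhibition at least 50% and at least half of replicates individually reaching 50%; inconclusive means only one of the two criteria met; inactive means neither criterion met.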

The experiment is described as follows: E. coli Tat export inhibitors, primary screen, MC4100, TorA-mCherry reporter, fluorescence, single point (AID 488895).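 Further: exported cargo escapes ClpAP degradation while cytoplasmic cargo is degraded and loses fluorescence; 0% = median of neutral control wells and 100% = median of NaSCN control wells.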 Particulars: at 10 µM, active compounds read high.
As usually defined, the inhibition is the drop in the measured response relative to a control, in per cent. In the case of `CC(C)N1C(=O)CC2(CCN(CCOC(=O)C(O)(c3ccccc3)c3ccccc3)CC2)C1=O`, the inhibition is inactive: -6.29%. For `CCN(CC)CC(C)C(C)OC(=O)C(O)(c1ccccc1)c1ccccc1` (stereo not given) the value was inactive: 3.8%. In the case of `COc1cc(SC)ccc1C(=O)NCC1(N(C)C)CCCCC1`, the inhibition is inactive: 1.24%. As to `Cc1ccc(C(=O)NCC2(N3CCCCC3)CCCCC2)cc1`, the inhibition is inactive: -7.28%. For the compound `O=C(NCC1(N2CCCCC2)CCCCC1)c1cc([N+](=O)[O-])ccc1Cl`, the inhibition was inactive: 0.214%. For the compound `CN1[C@@H]2CC[C@H]1CC(OC(=O)C(O)(c1ccccc1)c1ccccc1)C2` (stereo not given in full), the inhibition is inactive: 0.791%. `C=CCN1CCN(CCOC(=O)C(O)(c2ccccc2)c2ccccc2)CC1`: the inhibition was inactive: -4.3%. With `O=C(NCC1(N2CCCCC2)CCCCC1)c1cc(F)c(F)cc1Cl` the figure was inactive: 0.719%. For `Cc1cc(C(=O)NCC2(N3CCCCC3)CCCCC2)ccc1[N+](=O)[O-]` the value was inactive: -4.73%; for `CCN1CCCC(OC(=O)C2(O)c3ccccc3C=Cc3ccccc32)C1` (stereo not given), inactive: 1.56%; for `O=C(NCC1(N2CCCCC2)CCCCC1)c1cccc(Br)c1`, inactive: 1.96%.

Turning to `COc1ccc(C(=O)NCC2(N(C)C)CCCCC2)cc1`, the inhibition was inactive: -1.68%.

Take `Cc1ccccc1C(=O)NCC1(N2CCCCC2)CCCCC1`: the inhibition was inactive: -4.39%.

In the case of `CN(C)C1CCCC1OC(=O)C(O)(c1ccccc1)c1ccccc1` (stereo not given), the inhibition was inactive: 1.71%.

In the case of `CN(C)c1ccc(C(=O)NCC2(N(C)C)CCCCC2)cc1`, the inhibition was inactive: -7.91%. For `COc1cccc(C(=O)NCC2(N3CCCCC3)CCCCC2)c1` the value was inactive: -2.33%. For `COc1ccc(Cl)cc1C(=O)NCC1(N(C)C)CCCCC1` the value was inactive: -8.78%.

On to `O=C(NCC1(N2CCCCC2)CCCCC1)c1cccc(Cl)c1`, for which the inhibition was inactive: 2.19%. For `CN(C)C1(CNC(=O)c2ccc(Br)cc2)CCCCC1` the value was inactive: -3.05%. Regarding `COc1cc(C(=O)NCC2(N(C)C)CCCCC2)c([N+](=O)[O-])cc1OC`, the inhibition is inactive: -0.956%. For `COc1ccc(Br)c(C(=O)NCC2(N3CCCCC3)CCCCC2)c1` the value was inactive: 5.49%; for `CN(C)c1cccc(C(=O)NCC2(N(C)C)CCCCC2)c1`, inactive: -9.63%; for `CC(C)Oc1ccc(C(=O)NCC2(N(C)C)CCCCC2)cc1`, inactive: 1.11%. As to `O=C(OCCN1CCCC1)C(O)(c1ccccc1)c1ccccc1`, the inhibition is inactive: 1.69%.

Consider `O=C(OC1CN2CCC1CC2)C(CO)(c1ccccc1)c1ccccc1` (stereo not given), for which the inhibition was inactive: -4.38%.

The record behind these values is PubChem BioAssay AID488895 (Broad Institute, 2010).
